# Test system: LPS-induced activation of NF-κB promoter in CCD841 cells
# Conditions: ligand 1 mM 8 h, then LPS 100 ng/ml 4 h, luciferase
# Source text: The anti-inflammatory effect of butyrate was monitored in colonic cells by its ability to suppress LPS-induced activation of NF-κB promoter with luciferase as the reporter. The participation of SLC5A8 and GPR109A in mediating the effects of extracellular butyrate was differentiated first by using specific ligands. If SLC5A8 is involved in the process, the transporter-facilitated entry of butyrate followed by inhibition of histone deacetylases (HDACs) inside the cells would be responsible for the effects. If GPR109A is involved in the process, the activation of the receptor by extracellular butyrate would be responsible for the effects. […] In these experiments, cells were first transfected with the construct carrying the NF-κB-luciferase, pretreated with GPR109A ligands (1 mM) for 8 h and then exposed to LPS (100 ng/ml) for 4 h. Following the treatment, cell lysates were used to measure luciferase activity as a read-out for activation of NF-κB.
smiles,measurement,value
CC1(c2ccccc2)OC(C(=O)O)=CC1=O (stereo not shown) [acifran],effect on LPS-induced activation of NF-κB promoter,able to block LPS-induced activation of NF-κB promoter
